ChEMBL document CHEMBL1127552, “Approaches toward selective inhibition of nitric oxide synthase” (J Med Chem, 1994)

Target: T1, Nitric oxide synthase, inducible (Mus musculus, UniProt P29477)
T1 sequence (P29477 whole entry): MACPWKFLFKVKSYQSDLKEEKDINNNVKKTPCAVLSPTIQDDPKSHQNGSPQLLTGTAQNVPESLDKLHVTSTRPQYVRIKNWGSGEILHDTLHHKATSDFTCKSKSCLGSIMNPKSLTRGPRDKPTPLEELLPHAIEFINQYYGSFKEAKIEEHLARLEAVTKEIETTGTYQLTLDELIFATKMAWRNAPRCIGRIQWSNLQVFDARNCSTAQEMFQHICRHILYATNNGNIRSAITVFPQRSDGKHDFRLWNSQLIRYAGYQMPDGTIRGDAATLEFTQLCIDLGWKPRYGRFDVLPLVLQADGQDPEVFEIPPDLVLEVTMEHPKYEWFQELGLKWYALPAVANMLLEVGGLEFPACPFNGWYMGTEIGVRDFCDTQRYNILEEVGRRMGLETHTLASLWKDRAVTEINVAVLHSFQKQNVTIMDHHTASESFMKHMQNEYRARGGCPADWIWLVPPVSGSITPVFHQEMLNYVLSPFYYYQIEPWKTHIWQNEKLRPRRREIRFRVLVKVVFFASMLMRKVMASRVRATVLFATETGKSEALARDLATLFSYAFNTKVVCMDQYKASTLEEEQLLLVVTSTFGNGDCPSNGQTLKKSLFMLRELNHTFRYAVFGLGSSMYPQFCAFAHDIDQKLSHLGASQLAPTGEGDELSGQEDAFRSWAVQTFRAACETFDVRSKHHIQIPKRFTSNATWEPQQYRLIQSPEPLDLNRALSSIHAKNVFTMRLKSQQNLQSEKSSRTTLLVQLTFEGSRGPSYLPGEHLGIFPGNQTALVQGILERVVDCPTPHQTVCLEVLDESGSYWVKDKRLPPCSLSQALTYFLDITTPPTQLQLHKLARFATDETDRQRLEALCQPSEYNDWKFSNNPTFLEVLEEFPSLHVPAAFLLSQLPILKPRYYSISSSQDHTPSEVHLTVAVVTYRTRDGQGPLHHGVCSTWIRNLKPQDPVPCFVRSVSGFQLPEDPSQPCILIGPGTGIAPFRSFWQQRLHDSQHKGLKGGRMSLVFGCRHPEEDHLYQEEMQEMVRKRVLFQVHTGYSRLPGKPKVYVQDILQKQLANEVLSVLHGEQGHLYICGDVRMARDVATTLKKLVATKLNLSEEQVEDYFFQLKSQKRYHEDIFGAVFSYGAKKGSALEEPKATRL
Assay: Compound was tested for its inhibitory activity against macrophage NO2- synthesis

COC(=O)[C@@H](N)CCCNC(=N)N[N+](=O)[O-] [L-NAME]
IC50: 2600 nM
